# Experimental data as given in article PMC3361267 (Journal of Medicinal Chemistry, 2012).
# Sequences of proteins named here, by UniProt entry; tags and fusion partners are left off. A change or cut given only in a name is not applied to a line headed by its entry.
# UniProt Q9NPD5: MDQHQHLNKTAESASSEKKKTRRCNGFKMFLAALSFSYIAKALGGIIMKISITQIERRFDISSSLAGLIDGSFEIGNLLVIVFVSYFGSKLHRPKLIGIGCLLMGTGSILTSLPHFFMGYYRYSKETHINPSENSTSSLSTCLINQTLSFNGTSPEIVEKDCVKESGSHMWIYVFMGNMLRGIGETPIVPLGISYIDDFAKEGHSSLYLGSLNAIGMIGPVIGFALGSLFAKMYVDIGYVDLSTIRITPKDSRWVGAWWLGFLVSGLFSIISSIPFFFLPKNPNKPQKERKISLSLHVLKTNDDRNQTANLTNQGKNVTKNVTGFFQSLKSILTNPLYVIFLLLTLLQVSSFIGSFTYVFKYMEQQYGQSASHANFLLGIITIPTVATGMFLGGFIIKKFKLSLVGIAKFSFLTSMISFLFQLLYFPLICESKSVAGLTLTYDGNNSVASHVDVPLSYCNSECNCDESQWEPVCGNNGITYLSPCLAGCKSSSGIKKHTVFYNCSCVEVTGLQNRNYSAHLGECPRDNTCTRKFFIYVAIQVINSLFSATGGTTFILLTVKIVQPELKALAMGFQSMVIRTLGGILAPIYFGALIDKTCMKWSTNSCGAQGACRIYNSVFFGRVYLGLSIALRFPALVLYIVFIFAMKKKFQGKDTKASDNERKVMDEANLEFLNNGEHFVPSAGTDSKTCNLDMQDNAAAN
# Target: OATP1B3 (Homo sapiens, UniProt Q9NPD5)
structure (smiles),measurement,value
"OCCN(CCO)c1nc(N2CCCCC2)c2nc(N(CCO)CCO)nc(N3CCCCC3)c2n1 [dipyridamole, Dipyridamole]",OATP1B3 Inhib %,91.8%
